Activity calls are given as the source filed them. No cut-off for these calls is given here.
Experiments:
[1] = target: T1, Bile acid receptor (Homo sapiens) (UniProt Q96RI1); experiment: Agonist activity at human […] FXR LBD expressed in HEK293 cells coexpressing GAL4-DNA bindig domain and pFRluc by mammalian one-hybrid assay relative to GW-4064; type: functional, cell-based
T1 sequence (whole entry): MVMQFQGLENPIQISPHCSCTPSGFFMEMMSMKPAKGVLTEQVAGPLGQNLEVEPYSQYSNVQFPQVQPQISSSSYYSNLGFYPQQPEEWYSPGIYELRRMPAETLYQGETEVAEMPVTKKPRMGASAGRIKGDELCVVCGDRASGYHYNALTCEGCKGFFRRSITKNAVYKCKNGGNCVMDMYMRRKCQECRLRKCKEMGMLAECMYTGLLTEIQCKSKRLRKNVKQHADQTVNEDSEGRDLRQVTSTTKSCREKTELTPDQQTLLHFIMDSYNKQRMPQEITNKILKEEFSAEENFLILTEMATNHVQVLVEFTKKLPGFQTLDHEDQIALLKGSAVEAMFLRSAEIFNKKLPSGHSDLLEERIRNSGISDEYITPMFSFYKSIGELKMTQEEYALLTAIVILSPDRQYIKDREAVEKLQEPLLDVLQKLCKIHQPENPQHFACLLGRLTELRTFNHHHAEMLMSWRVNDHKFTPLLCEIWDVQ

[2] = target: T1, Bile acid receptor (Homo sapiens); experiment: Agonist activity at human full length FXR transfected in HEK293 cells coexpressing pTRexDest/pGL2promotor assessed as luciferase activity by direct reporter cellular assay relative to GW-4064; type: functional, cell-based
[3] = target: T1, Bile acid receptor (Homo sapiens); experiment: Agonist activity at human GST-fused FXR LBD assessed as cofactor peptide interaction with receptor ligand binding domain by FRET assay relative to GW-4064

## Cc1cc(C(F)(F)F)cc(OCc2c(-c3c(Cl)cccc3Cl)noc2C(C)C)n1
[1]
  Efficacy: inactive
[2]
  Efficacy: inactive
[3]
  Efficacy: 98%
